# AlphaSeq binding of Ab-14 heavy chain variants to a spike HR2 peptide

Antigen: PDVDLGDISGINAS, a 14-residue peptide of the SARS-CoV-2 spike HR2 region.

Ab-14 is the parent antibody, in scFv form: VH, then three GGGGS repeats, then VL. The light chain is unchanged in all variants.
VH: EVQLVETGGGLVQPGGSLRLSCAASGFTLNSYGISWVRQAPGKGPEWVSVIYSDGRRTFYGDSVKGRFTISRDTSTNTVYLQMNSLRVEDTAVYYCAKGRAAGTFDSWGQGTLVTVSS
VL: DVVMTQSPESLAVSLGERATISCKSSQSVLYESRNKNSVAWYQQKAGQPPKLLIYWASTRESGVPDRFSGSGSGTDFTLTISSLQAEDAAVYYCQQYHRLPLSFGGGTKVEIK

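The starting antibody came from a phage panning campaign against this peptide. The variants were designed computationally from a first round of random CDR variants and then made and measured. Group labels follow the data file (Ctrl: baseline library sampled from a position-specific scoring matrix, with some repeated check sequences; Rand: our label for a block that the file lists under HC and that is probably the random mutants of the ten best first-round binders; En: ensemble of fine-tuned language models; GP: Gaussian process model; GPLM: also part of the Gaussian process libraries; HC: hill climbing; Gen: genetic algorithm; Gibbs: Gibbs sampling; a sequence that several methods proposed may carry one label only). In AlphaSeq, yeast of one mating type display the scFv and yeast of the other type display the target. Pairs that bind mate more often; barcode pairs of the diploids are counted by sequencing. Each replicate has its own calibration line, from reference interactions of the BCL2 family. Each pool was mated in six replicate cultures.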

Variants are written as CDR1, CDR2 and CDR3 of the heavy chain (limits as in the source). Parent: GFTLNSYGIS, VIYSDGRRTFYGDSVK, GRAAGTFDS. Kd is apparent (estimated from mating counts) and averaged on the log scale over replicates with a signal. Smaller is tighter. A pair that was not seen in any replicate is written "nd"; this usually means weak binding, but a binder can also be missed. A sequence that the file lists under several names has all its replicates pooled.

| CDR-H1 | CDR-H2 | CDR-H3 | group | Kd | replicates with signal |
|---|---|---|---|---|---|
| GFDLNEYGIS | VIYADGMRTAYVDSVK | GNEAGTFDV | En_Gen | 430 pM | 5 of 6 |
| GFTLNSYGIS | VIYSDGRRTFYKDSVK | GRDAGTFDS | Ctrl | 34 nM | 3 of 6 |
| KFSLNSYGIS | VIYSDGRRTFYADSVK | GKAAGTFDS | GPLM_Gen | 27 nM | 6 of 6 |
| GFDLDEYGIS | VIYADGMRTFYADSVK | GETAGTFDV | En_Gen | 420 pM | 6 of 6 |
| GFTLNSYGIS | VIYSDGLRTFYGDSVK | GRVAGTFDS | GPLM_Gen | 45 nM | 6 of 6 |
| GFEIQDYGIS | VIYADGLRTQYSDKFK | GIIAGTINV | En_Gibbs | 140 nM | 4 of 6 |
| GFDLNEYGIS | VIYADGSRTAYADDVK | GENAGTFDI | En_Gen | 1.1 nM | 6 of 6 |
| GFTLNSYGIS | VIYSDGRRTFYADSVK | GLLAGTFDS | GP_HC | 34 nM | 2 of 6 |
| GFSLNSYGIS | VIYSDGRRTFYGDSVK | GWAAGTFDN | GP_Gen | nd | 0 of 6 |
| GFDLNEYGIS | VIYADGMRTAYAEDVK | GNNAGTFDV | En_Gen | 2.0 nM | 6 of 6 |
| GFDLEDYGIS | VIYADGMRTFYADSVK | GEIAGTFDL | En_HC | 1.3 nM | 6 of 6 |
| GFDLNEYGIS | VIYADGQRTAYTDSVK | GNVAGTFDL | En_Gen | 18 pM | 6 of 6 |
| GFDLNSYGIS | VIYSDGRRTFYADSVK | GRAAGTFNS | GPLM_HC | 2.8 nM | 2 of 6 |
| MFTLNSYGIS | VIYSDGKRTFYGDSVK | GRTAGTFDT | GP_Gibbs | 51 nM | 1 of 6 |
| GFTINSYGIS | VIYSDGRRTFYKDSVK | GRAAGTYPS | Ctrl | nd | 0 of 6 |
| GFNLNSYGIS | VIYADGYRTFYGDSVK | GREAGTFDT | Ctrl | 780 pM | 6 of 6 |
| GFNLNEYGIS | VIYADGRRSFYSDSVK | GEHAGTFDV | En_HC | 260 pM | 6 of 6 |
| GFSLVMYGIS | VIYSDGRRTFYGDSVK | GRAAGTFDL | Ctrl | nd | 0 of 6 |
| GFTLNSYGIS | VIYSDGERTFYADSVK | GRAAGTFDS | GP_HC | 7.4 nM | 6 of 6 |
| GFDLDEYGIS | VIYADGRRTFYIDSVK | GEVAGTFDV | En_HC | 1.2 nM | 6 of 6 |
| GFQLNDYGIS | VIYSDGRRTFYGDSVK | GKAAGTFDS | GP_HC | 5.6 nM | 6 of 6 |
| GFDLNEYGVS | VIYADGKRTAYTDTVK | GNQFDAWMA | En_Gibbs | nd | 0 of 6 |
| GFDLNEYGIS | VIYADGRRTFYTDSVK | GQLAGTFDT | En_HC | 400 pM | 6 of 6 |
| GFTLNSYGIS | VIYSDGRRTFYGDNVK | GRAAGTFDI | Ctrl | 180 nM | 3 of 6 |
| GFDLNQYGIS | VIYSDGMRTFYSDSVK | GRAAGTFDS | GPLM_HC | 11 nM | 5 of 6 |
| GFELNSYGIS | VIYSDGRRTFYGDSVK | GRVAGTFDV | GP_Gen | 5.0 nM | 6 of 6 |
| GFTLNSYGIS | VIYSDGVRTFYSDSVK | GRAAGTFDS | Ctrl+GPLM_HC | 5.3 nM | 12 of 12 |
| GFDLNEYGIS | VIYADGKRTVYADSVK | GNVAGTFDQ | En_Gen | 12 nM | 6 of 6 |
| GFDLNEYGIS | VIYADGMRTAYTDDVK | GNVAGTFDQ | En_Gen | 450 pM | 6 of 6 |
| GFDLNEYGIS | VIYADGRRTAYVDSVK | GNVAGTFDQ | En_Gen | 270 pM | 6 of 6 |
| GVDLNSYGIS | VIYGDGRRCFYGDSVK | GKAAGWFNS | Rand | nd | 0 of 6 |
| GFDLNSYGIS | VIYSDGRRTFYGDSVK | GAEAGTFES | GP_HC | 5.6 nM | 6 of 6 |
| GFDLNEYGIS | VIYADGRRTFYSDSVK | GEAGGTFDV | En_HC | 2.1 nM | 6 of 6 |
| GFTLNSYGIS | VIYSDGRRTFYTDSVK | GRMAGTFDS | Ctrl | 85 nM | 6 of 6 |
| GFSLNNYGIS | VIYSDGRRTYYGDSVK | GRAAGTFDS | GPLM_Gibbs | 7.6 nM | 4 of 6 |
| GMNLDEYGIS | VIYADGKRCQYANTVK | GELAGFFML | En_Gibbs | nd | 0 of 6 |
| GIDLEKYGIS | VIYADGMRASYADAVK | GDLSGTFYI | En_Gibbs | nd | 0 of 6 |
| GFNLNEYGIS | VIYADGRRTFYTDDVK | GEFAGTFDV | En_HC | 580 pM | 6 of 6 |
| GFDLNEYGIS | VIYADGVRTQYIDSVK | GEAAGTFDS | En_HC | 860 pM | 6 of 6 |
| GFDLNEYGIS | VIYADGRRTFYSDSVK | GNNAGTFDM | En_HC | 320 pM | 6 of 6 |
| GFDINEYGIS | VIYADGRRTQYADSVK | GEAAGTFDT | En_HC | 930 pM | 6 of 6 |
| GFNLNEFGIS | VIYADGHRQAYVPNVK | GHLGGHFDM | En_Gibbs | nd | 0 of 6 |
| GFALNSYGIS | VIYSDGVRTFYGDSVK | GSAKNTFDS | Ctrl | nd | 0 of 6 |
| GFDLDEYGIS | VIYADGRRTSYIDSVK | GETAGTFDV | En_HC | 610 pM | 6 of 6 |
| GFDLNEYGIS | VIYADGFRTFYTDSVK | GEVAGTFDI | En_HC | 640 pM | 6 of 6 |
| GFTLNSYGIS | VIYSDGRRTSYEDSVK | GFAAGTFDS | Ctrl | 1.5 µM | 5 of 6 |
| GFDLNEYGIS | VIYADGMRTAYVDSVK | GQNAGTFDI | En_Gen | 750 pM | 6 of 6 |
| GFDLDEYGIS | VIYADGKRTAYADSVK | GEVAGTFDT | En_Gen | 590 pM | 6 of 6 |
| GFWLNEYGIS | VIYSDGRRTFYIDSVK | GNAAGTFDS | GP_Gen | 40 nM | 6 of 6 |
| FFKLEDYGIS | VIYADGKRKAYVQNVK | GEIAGTFDV | En_Gibbs | 31 nM | 1 of 6 |
| GFDLNEYGIS | VIYADGRRTFYADSVK | GSLAGTFNM | En_HC | 1.0 nM | 6 of 6 |
| GFSLNEYGIS | VIYSDGRRTFYGDSVK | GRTAGTFDT | GPLM_Gen | 3.6 nM | 6 of 6 |
| GFSLNSYGIS | VIYSDGRRTFYGDRVK | GRQAGTFDS | GP_Gibbs | 14 nM | 6 of 6 |
| GFDLNEYGIS | VIYADGMRTFYADSVK | GETAGTFDV | En_Gen | 380 pM | 6 of 6 |
| GFTLNDYGIS | VIYSDGRRTFYTDSVK | GKAAGTFDS | GPLM_Gen | 1.1 nM | 6 of 6 |
| GFDLNEYGIS | VIYADGVRTAYTDSVK | GTNAGTFDI | En_Gen | 480 pM | 6 of 6 |
| GFDLEDYGIS | VIYADGKRTAYAQKFK | GRIGGTFVD | En_Gibbs | 5.3 nM | 6 of 6 |
| GFDLNEYGIS | VIYADGSRTAYADSVK | GNTAGTFDM | En_Gen | 700 pM | 6 of 6 |
| GFTLNQYGIS | VIYSDGRRTFYGDSVK | GSAAGTFDS | Ctrl | 1.5 nM | 6 of 6 |
| KFNLNSYGIS | VIYSDGRRTFYADSVK | GRLAGTFDS | GP_Gen | 69 nM | 6 of 6 |
| GFDLDEYGIS | VIYADGKRTAYADKVK | GNQAGTFDV | En_Gen | 750 pM | 6 of 6 |

From the list, the first 7 with no signal in any replicate:

CDR-H1,CDR-H2,CDR-H3,group,Kd,replicates with signal
GFSLNSYGIS,VIYSDGRRTFYGDSVK,GWAAGTFDN,GP_Gen,nd,0 of 6
GFTINSYGIS,VIYSDGRRTFYKDSVK,GRAAGTYPS,Ctrl,nd,0 of 6
GFSLVMYGIS,VIYSDGRRTFYGDSVK,GRAAGTFDL,Ctrl,nd,0 of 6
GFDLNEYGVS,VIYADGKRTAYTDTVK,GNQFDAWMA,En_Gibbs,nd,0 of 6
GVDLNSYGIS,VIYGDGRRCFYGDSVK,GKAAGWFNS,Rand,nd,0 of 6
GMNLDEYGIS,VIYADGKRCQYANTVK,GELAGFFML,En_Gibbs,nd,0 of 6
GIDLEKYGIS,VIYADGMRASYADAVK,GDLSGTFYI,En_Gibbs,nd,0 of 6

Three control strains display no target. For all heavy chain designs, 1% of the pairings with them gave a signal, with a median of 120 nM and one signal in twenty below 7.0 nM, so weak values seen in few replicates may be background. Of ten entries with the parent sequence, four were seen in most replicates (averages 2.2 nM to 240 nM), three in one and three in none, so single entries are noisy. The authors averaged sequences with at least three values out of six and counted those with two or fewer as poor binders. Values of this round are not directly comparable with the first-round values of the same sequences.

Reference: Li et al. 2023, doi:10.1038/s41467-023-39022-2. File: FLAb, binding data.